Consider 10 compounds from PubChem BioAssay AID720 (The Scripps Research Institute Molecular Screening Center, 2007).

Protein sequences, listed by entry. Tags and fused reporters are not part of them.
UniProt P54760, whole entry: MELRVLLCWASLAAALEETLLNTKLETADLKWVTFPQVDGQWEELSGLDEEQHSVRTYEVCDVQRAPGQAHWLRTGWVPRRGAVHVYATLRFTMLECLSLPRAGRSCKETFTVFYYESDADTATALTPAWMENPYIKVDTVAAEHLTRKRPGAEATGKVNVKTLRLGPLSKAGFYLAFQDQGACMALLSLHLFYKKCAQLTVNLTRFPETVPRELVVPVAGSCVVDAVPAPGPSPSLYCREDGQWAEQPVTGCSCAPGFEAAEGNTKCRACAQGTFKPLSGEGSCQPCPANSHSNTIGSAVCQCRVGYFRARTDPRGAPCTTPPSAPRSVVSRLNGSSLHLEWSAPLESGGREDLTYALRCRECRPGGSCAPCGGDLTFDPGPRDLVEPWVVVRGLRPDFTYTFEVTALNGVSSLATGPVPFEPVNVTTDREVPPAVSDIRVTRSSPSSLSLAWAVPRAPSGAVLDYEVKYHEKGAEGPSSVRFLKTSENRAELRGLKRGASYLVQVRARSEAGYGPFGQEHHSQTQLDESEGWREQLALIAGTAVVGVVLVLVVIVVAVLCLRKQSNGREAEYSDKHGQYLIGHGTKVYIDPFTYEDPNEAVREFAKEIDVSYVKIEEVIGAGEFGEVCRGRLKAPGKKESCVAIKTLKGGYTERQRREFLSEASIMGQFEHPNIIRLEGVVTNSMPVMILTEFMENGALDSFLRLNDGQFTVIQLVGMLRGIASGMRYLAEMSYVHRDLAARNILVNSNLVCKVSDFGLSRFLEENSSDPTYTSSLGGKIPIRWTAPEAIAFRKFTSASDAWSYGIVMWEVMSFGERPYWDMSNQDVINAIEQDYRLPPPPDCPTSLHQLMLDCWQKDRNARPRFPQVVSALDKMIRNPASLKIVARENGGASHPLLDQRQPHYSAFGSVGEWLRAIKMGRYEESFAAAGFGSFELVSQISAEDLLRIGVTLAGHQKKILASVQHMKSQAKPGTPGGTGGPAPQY

The list shows a part of the results, in another mix than the full data. Active and inactive are the calls of the source.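 How the source made its calls: active means inhibition above the screen-wide mean inhibition plus 3 SD (cut at about 15% in these data); inactive means the rest.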

This experiment addresses Ephrin type-B receptor 4 (Homo sapiens) (UniProt P54760). The experiment in a line: blockers of EphB4 ligand binding – biochemical, TNYL-RAW peptide probe, fluorescence polarization, primary screen (AID 720).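 Further: 0% = DMSO wells and 100% = excess unlabeled TNYL-RAW peptide.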 The conditions noted are these: EphB4 LBD / TNYL-RAW-Alexa532 peptide, at 7 µM, stronger effect = higher value. On the technique in general: Fluorescence polarisation rises when a labelled molecule tumbles more slowly, as on binding a larger partner.
For orientation: inhibition means the relative decrease from the control value, in per cent. With `CCOc1ncccc1C(=O)NCC1(N2CCOCC2)CCCCC1`, the inhibition is inactive: -0.94%.

For `CCC(CO)(C(=O)OC1CN2CCC1CC2)c1ccccc1` (stereo not given), the inhibition is inactive: 0.85%. As for `c1ccc(CN2CCC(Nc3ccccc3)CC2)cc1`, the figure is inactive: 4.39%. In the case of `N/C(=N\O)c1c(N)no[n+]1[O-]`, the inhibition is inactive: -6.85%. With `CN1CCC(Nc2cccc(F)c2)CC1`, the inhibition was inactive: -1.9%. `N#CC1(Nc2ccccc2)CCN(CCc2ccccc2)CC1`: the inhibition is inactive: -1.47%. `O=C(NCC1(N2CCOCC2)CCCCC1)c1cc(=O)[nH]c2ccccc12`: the inhibition was inactive: 5.08%. As to `COc1ccc(NC2CCN(CCc3ccccc3)CC2)c(OC)c1`, the inhibition was inactive: 1.29%. In the case of `O=C(NCC1(N2CCOCC2)CCCCC1)c1cc2ccccc2o1`, the inhibition was inactive: 5.64%. As for `O=C(OC1CN2CCC1CC2)C1c2ccccc2Oc2ccccc21` (stereo not given), the figure is inactive: -0.66%.
